Reference: ChEMBL document CHEMBL1140408 (J Med Chem, 2005)

The chains behind the UniProt entries cited, without tags or fusion partners.
UniProt O35433, whole entry: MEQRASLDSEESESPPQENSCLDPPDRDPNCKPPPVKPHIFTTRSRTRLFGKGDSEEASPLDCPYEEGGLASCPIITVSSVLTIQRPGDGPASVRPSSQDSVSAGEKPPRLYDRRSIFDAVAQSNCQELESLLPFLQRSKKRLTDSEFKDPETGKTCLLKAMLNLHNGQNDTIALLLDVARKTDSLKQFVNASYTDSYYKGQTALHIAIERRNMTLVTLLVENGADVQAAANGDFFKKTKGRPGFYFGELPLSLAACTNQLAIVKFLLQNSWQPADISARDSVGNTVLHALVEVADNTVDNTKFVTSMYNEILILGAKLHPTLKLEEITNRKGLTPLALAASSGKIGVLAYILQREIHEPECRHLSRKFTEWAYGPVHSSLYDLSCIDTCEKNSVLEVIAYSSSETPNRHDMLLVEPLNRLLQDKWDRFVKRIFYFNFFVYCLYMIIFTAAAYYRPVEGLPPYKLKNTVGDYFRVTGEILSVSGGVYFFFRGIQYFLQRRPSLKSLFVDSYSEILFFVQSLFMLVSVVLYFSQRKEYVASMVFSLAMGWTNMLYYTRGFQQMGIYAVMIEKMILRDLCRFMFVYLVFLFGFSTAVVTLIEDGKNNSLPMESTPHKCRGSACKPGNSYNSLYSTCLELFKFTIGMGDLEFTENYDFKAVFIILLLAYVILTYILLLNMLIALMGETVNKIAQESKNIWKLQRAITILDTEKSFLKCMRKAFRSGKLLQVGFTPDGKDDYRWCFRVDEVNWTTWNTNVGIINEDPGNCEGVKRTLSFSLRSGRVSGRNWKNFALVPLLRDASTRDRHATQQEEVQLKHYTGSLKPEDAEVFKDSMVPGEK

Columns and labels:
[1] = target: Transient receptor potential cation channel subfamily V member 1 (Rattus norvegicus) (UniProt O35433); details: 10 uM
[2] = target: Transient receptor potential cation channel subfamily V member 1 (Rattus norvegicus) (UniProt O35433); details: 30 uM
[3] = target: Transient receptor potential cation channel subfamily V member 1 (Rattus norvegicus, UniProt O35433); experiment: Inhibitory effect on capsaicin (0.5 uM)-induced calcium uptake in rat DRG neurons upon incubation at RT for 10 minutes
Method in brief: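 Neonatal Sprague–Dawley rat DRG neurons, dissociated with collagenase/trypsin and cultured 3 days with 200 ng/mL NGF (cytosine arabinoside for the first 2 days), were washed in Ca/Mg-free HBSS with 10 mM HEPES at pH 7.4. They were then given 45Ca2+ (10 µCi/mL), 0.5 µM capsaicin and compound for 10 min at room temperature, SDS-lysed and scintillation-counted.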

| SMILES | Agonistic activity [1] | further results |
| --- | --- | --- |
| CC(C)(C)c1ccccc1C/N=C(\S)NCc1ccc(NS(C)(=O)=O)c(F)c1 | 28% | – |
| CC(C)(C)c1ccc(C/N=C(\S)NCc2ccc(NCC(=O)O)c(F)c2)cc1 | – | Agonistic activity [2]: 19% |
| CC(=O)Nc1ccc(C/N=C(\S)NCc2ccc(C(C)(C)C)cc2)cc1F | – | IC50 [3]: 1500 nM |
| COC(=O)Nc1ccc(C/N=C(\S)NCc2ccc(C(C)(C)C)cc2)cc1F | 72% | – |
| CC(C)(C)c1ccc(C/N=C(\S)NCc2ccc(N)c(F)c2)cc1 | 36% | – |
